Consider one compound from ChEMBL document CHEMBL2385035, “Discovery of a highly potent, nonabsorbable apical sodium-dependent bile acid transporter inhibitor (GSK2330672) for treatment of type 2 diabetes” (J Med Chem, 2013).

The assay concerns the target T1, Ileal sodium/bile acid cotransporter (Homo sapiens, UniProt Q12908).
T1 sequence (Q12908 whole entry): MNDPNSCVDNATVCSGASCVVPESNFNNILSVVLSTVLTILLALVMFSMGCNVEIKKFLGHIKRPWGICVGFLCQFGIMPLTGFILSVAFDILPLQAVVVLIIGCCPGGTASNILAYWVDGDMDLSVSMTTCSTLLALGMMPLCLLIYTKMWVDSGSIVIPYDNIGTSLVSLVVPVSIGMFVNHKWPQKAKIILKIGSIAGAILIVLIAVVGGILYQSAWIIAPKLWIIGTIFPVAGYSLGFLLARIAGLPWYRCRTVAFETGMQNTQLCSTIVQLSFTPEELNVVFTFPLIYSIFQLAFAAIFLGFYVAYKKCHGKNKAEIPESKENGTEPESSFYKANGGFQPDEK
Put plainly: Inhibition of human ASBT expressed in HEK293 cells assessed as inhibition of [3H]-taurocholate uptake after 90 mins by scintillation counting analysis. In kind it is cell-based.

pIC50: −log10 of the molar value.

In the case of `CCCC[C@]1(CC)CS(=O)(=O)c2cc(C(=O)NC(CC(=O)O)CC(=O)O)c(OC)cc2[C@@H](c2ccccc2)N1`, the pIC50 – broadly, −log10 of the IC50, conventionally taken in molar units – is 7.01.
